Results on 1 compound are retold here after patent US11964973B2 (priority 2019, dated 2024).

The chains behind the UniProt entries cited, without tags or fusion partners. Where a name states a change or a piece, a line headed by the entry shows the natural chain unless it says otherwise.
UniProt Q13574: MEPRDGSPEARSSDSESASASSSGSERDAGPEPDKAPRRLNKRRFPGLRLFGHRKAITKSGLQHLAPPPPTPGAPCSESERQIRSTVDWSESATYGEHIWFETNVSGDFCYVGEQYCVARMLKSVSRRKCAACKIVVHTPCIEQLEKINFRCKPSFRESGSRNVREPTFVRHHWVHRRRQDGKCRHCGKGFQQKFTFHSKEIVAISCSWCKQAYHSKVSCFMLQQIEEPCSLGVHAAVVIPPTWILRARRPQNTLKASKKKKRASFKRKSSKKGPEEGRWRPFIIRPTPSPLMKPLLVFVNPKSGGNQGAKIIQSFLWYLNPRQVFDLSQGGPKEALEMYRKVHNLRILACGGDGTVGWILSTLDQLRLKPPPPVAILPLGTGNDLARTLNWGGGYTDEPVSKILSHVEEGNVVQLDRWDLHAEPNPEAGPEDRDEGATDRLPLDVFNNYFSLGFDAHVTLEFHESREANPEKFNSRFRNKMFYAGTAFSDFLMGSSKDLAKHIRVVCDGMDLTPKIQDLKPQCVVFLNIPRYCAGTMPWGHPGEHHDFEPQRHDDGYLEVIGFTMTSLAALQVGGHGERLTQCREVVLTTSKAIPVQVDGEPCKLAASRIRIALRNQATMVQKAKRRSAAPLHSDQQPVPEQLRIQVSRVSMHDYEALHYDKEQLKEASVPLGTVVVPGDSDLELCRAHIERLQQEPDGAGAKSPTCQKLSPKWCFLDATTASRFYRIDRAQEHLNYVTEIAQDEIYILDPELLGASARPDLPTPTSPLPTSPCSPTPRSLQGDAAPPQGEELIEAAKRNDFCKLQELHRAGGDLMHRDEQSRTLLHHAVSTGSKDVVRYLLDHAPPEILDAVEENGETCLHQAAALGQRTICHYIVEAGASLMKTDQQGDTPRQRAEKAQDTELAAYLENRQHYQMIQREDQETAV

The IC50 is the concentration that inhibits the measured activity by half. Read a low IC50 as higher potency.

For this experiment, the target named is human DGKζ (Homo sapiens (Human), UniProt Q13574). Briefly: biochemical. As to conditions: DGKζ LIPGLO IC50.

Compound `C[C@@H]1CN(c2cc(=O)n(C)c3ccc(C#N)nc23)CC[C@H]1Oc1c(F)cccc1F` [Example 125, 8-((3R,4R)-4-(2,6-difluorophenoxy)-3-methylpiperidin-1-yl)-5-methyl-6-oxo-5,6-dihydro-1,5-naphthyridine-2-carbonitrile] returned a half-maximal inhibitory concentration (IC50) of 17 µM.
